Patent US20180209979A1, “METHOD FOR INDIVIDUALIZED CANCER THERAPY” (INSERM (INSTITUT NATIONAL DE LA SANTE ET DE LA RECHERCHE), priority 2015, published 2018)

Legend:
[1] = test system: CAL33 cells; assay: Clonogenicity assay (clonal growth) of shC, sh1 and sh2 CAL33 cells; type: cell-based, human; settings: cetuximab 6 nmol/L, FIG. 7
Protocol: (§1) Statistical analysis was carried out using a t test. […] The concentration of erlotinib/Tarceva which reduces tumor cell growth, was assessed by using the 3-[4,5-dimethylthiazol-2yl]-diphenyltetrazolium bromide (MTT) colorimetric assay (Sigma, Lyon, France) according to the manufacturer's instructions.

[2] = test system: CAL33 cells; settings: Rebucci M et al. 2011, read-out: IC50 of cetuximab; cited from earlier work
[3] = test system: CAL27 cells; assay: Clonal growth of shC and sh2 CAL27 cells; type: cell-based, human; settings: sh2 CAL 27 cells; FIG. 9
Protocol: as §1

Substance: cetuximab
- inhibition of clonal growth ([1]; sh1 CAL33 cells (TRF2 knock-down)): 60%
- inhibition of clonal growth ([1]; sh2 CAL33 cells (TRF2 knock-down)): 60%
- IC50 [2]: 0.03 µM
- effect of TRF2 knock-down on efficacy of the drug (clonal growth) [3]: increased the efficacy
